Experimental data: PubChem BioAssay (Tox21)
The list shows a part of the results, in another mix than the full data. Results filed as inconclusive are left out. Active and inactive are the calls of the source. Unless noted, calls come from the whole dose curve; as a rule, active = well fitted curve in the direction sought with a large enough effect in the repeat runs; inconclusive = weak or mixed curves; inactive = no such curve, though single readings can be large; an effect the other way counts as inactive or inconclusive.

Chains of the proteins cited; added tags and fusions are not shown.
UniProt P06401, whole entry: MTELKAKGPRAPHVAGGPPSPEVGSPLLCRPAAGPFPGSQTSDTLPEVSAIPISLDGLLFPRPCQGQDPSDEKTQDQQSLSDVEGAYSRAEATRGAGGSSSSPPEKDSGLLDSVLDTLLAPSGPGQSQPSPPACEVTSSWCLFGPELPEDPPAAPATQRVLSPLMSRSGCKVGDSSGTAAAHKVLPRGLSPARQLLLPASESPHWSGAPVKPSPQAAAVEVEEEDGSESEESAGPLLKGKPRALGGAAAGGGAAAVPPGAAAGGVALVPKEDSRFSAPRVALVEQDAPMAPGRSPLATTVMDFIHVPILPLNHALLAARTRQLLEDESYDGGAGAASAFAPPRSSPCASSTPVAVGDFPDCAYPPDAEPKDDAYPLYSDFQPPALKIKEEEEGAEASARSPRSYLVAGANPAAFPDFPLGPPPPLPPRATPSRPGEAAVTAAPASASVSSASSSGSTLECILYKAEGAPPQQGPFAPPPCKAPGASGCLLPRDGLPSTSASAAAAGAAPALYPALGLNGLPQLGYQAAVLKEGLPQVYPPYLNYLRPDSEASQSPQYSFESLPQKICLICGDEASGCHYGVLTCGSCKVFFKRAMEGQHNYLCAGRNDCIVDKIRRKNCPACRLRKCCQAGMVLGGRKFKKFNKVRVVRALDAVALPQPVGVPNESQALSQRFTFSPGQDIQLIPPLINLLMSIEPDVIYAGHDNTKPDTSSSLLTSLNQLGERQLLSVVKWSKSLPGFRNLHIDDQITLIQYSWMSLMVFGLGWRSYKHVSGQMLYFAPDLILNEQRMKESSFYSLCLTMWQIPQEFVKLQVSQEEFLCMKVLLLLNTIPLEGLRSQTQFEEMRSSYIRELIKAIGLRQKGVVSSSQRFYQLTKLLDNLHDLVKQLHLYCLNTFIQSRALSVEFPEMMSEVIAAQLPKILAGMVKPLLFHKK

Legend:
[1] = qHTS assay to identify small molecule antagonists of the estrogen related receptor signaling pathway with the pleiotropic PPARgamma coactivator (PGC) from Tox21 10K library (AID 1224841; call rule not given here; note: actives are mostly falling curves and most rising ones were filed inactive; nearly all actives have a fitted effect of over 50% in size); conditions: PGC/ERR reporter cell line, ONE-Glo luciferase, 18 h
[2] = qHTS assay to identify small molecule antagonists of the estrogen related receptor (ERR) signaling pathway from Tox21 library (AID 1224848); conditions: ERR reporter cell line, luciferase antagonist mode, 18 h; note: nearly all actives have a fitted effect of over 50% in size
Procedure, shortened: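 Quantitative high-throughput format: ERR reporter cells (2,000/well) pre-incubated 6 h, treated 18 h at 37 C with compounds in DMSO alongside positive and negative controls, then read by ONE-Glo luminescence.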

[3] = qHTS RealTime-Glo MT Cell Viability Assay in HepG2 cells - 24 hour (AID 1224867); note: nearly all actives have a fitted effect of over 50% in size
Procedure, shortened: (§1)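 HepG2 suspension premixed with RealTime-Glo reagents is plated at 600 cells per well and left 5 h at 37 C/5% CO2. Compounds in DMSO then go in, and bioluminescence reflecting viable cell number is recorded over 40 h.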

[4] = qHTS RealTime-Glo MT Cell Viability Assay in HEK293 cells - 32 hour (AID 1224868); note: nearly all actives have a fitted effect of over 50% in size
Procedure, shortened: (§2)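 Reads taken at 0, 8, 16, 24, 32 and 40 h from the same wells. HEK293 cells (600/well) carried RealTime-Glo reagents from seeding, with compound added after a 5 h settle at 37 C.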

[5] = qHTS RealTime-Glo MT Cell Viability Assay in HepG2 cells - 40 hour (AID 1224870); conditions: RealTime-Glo luminescence; note: nearly all actives have a fitted effect of over 50% in size
Procedure, shortened: (§3)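 HepG2 cells (600/well) mixed with RealTime-Glo MT reagent, settled 5 h at 37 C/5% CO2 before compound addition. Nonlytic NanoLuc luminescence from viable-cell prosubstrate reduction read repeatedly during 40 h treatment at 37 C.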

[6] = A CellTox Green Cytotoxicity Assay to monitor cytotoxicity in HEK293 cells - 40 hour (AID 1224871); conditions: CellTox Green fluorescence; note: nearly all actives have a fitted effect of over 45% in size
Procedure, shortened: (§4)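 Fluorescence from a DNA-binding dye excluded by viable cells was measured repeatedly in the same HEK293 wells (600 cells/well) during continuous compound exposure at 37 C. Each assay gives one read point: 0, 8, 16, 24, 32 or 40 h.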

[7] = qHTS RealTime-Glo MT Cell Viability Assay in HEK293 cells - 16 hour (AID 1224872); note: nearly all actives have a fitted effect of over 50% in size
Procedure, shortened: as §2

[8] = qHTS RealTime-Glo MT Cell Viability Assay in HepG2 cells - 8 hour (AID 1224873); note: nearly all actives have a fitted effect of over 55% in size
Procedure, shortened: as §3

[9] = qHTS RealTime-Glo MT Cell Viability Assay in HEK293 cells - 40 hour (AID 1224874); conditions: RealTime-Glo luminescence; note: nearly all actives have a fitted effect of over 50% in size
Procedure, shortened: (§5)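 Luminescence, which tracks viable cell number through reduction of the prosubstrate to a NanoLuc substrate, was read over continuous 37 C culture. Cells (600/well) were premixed with reagent and rested 5 h before 23 nL of compound in DMSO was pinned.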

[10] = A CellTox Green Cytotoxicity Assay to monitor cytotoxicity in HEK293 cells - 24 hour (AID 1224875); conditions: CellTox Green fluorescence; note: nearly all actives have a fitted effect of over 45% in size
Procedure, shortened: as §4

[11] = A CellTox Green Cytotoxicity Assay to monitor cytotoxicity in HepG2 cells - 16 hour (AID 1224876); conditions: CellTox Green fluorescence; note: nearly all actives have a fitted effect of over 45% in size
Procedure, shortened: (§6)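 Real-time cytotoxicity: fluorescence of a cell-impermeant cyanine dye binding DNA of dead HepG2 cells, measured repeatedly (0–40 h) during compound exposure at 37 C. Cells seeded 600/well with reagent, dosed after 5 h.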

[12] = qHTS RealTime-Glo MT Cell Viability Assay in HepG2 cells - 32 hour (AID 1224877); note: nearly all actives have a fitted effect of over 55% in size
Procedure, shortened: as §1

[13] = A CellTox Green Cytotoxicity Assay to monitor cytotoxicity in HepG2 cells - 24 hour (AID 1224878); conditions: CellTox Green fluorescence; note: nearly all actives have a fitted effect of over 45% in size
Procedure, shortened: as §6

[14] = A CellTox Green Cytotoxicity Assay to monitor cytotoxicity in HepG2 cells - 40 hour (AID 1224879); note: nearly all actives have a fitted effect of over 40% in size
Procedure, shortened: as §6

[15] = A CellTox Green Cytotoxicity Assay to monitor cytotoxicity in HEK293 cells - 32 hour (AID 1224881); conditions: CellTox Green fluorescence; note: nearly all actives have a fitted effect of over 40% in size
Procedure, shortened: as §4

[16] = A CellTox Green Cytotoxicity Assay to monitor cytotoxicity in HepG2 cells - 32 hour (AID 1224883); conditions: CellTox Green fluorescence; note: nearly all actives have a fitted effect of over 50% in size
Procedure, shortened: as §6

[17] = A CellTox Green Cytotoxicity Assay to monitor cytotoxicity in HEK293 cells - 8 hour (AID 1224884); note: nearly all actives have a fitted effect of over 35% in size
Procedure, shortened: as §4

[18] = qHTS RealTime-Glo MT Cell Viability Assay in HepG2 cells - 16 hour (AID 1224885); note: nearly all actives have a fitted effect of over 50% in size
Procedure, shortened: as §1

[19] = qHTS RealTime-Glo MT Cell Viability Assay in HEK293 cells - 24 hour (AID 1224886); conditions: RealTime-Glo luminescence; note: nearly all actives have a fitted effect of over 50% in size
Procedure, shortened: as §2

[20] = qHTS RealTime-Glo MT Cell Viability Assay in HEK293 cells - 8 hour (AID 1224887); conditions: RealTime-Glo luminescence; note: nearly all actives have a fitted effect of over 50% in size
Procedure, shortened: as §5

[21] = A CellTox Green Cytotoxicity Assay to monitor cytotoxicity in HEK293 cells - 16 hour (AID 1224888); conditions: CellTox Green fluorescence; note: nearly all actives have a fitted effect of over 35% in size
Procedure, shortened: as §4

[22] = A CellTox Green Cytotoxicity Assay to monitor cytotoxicity in HepG2 cells - 8 hour (AID 1224890); conditions: CellTox Green fluorescence; note: nearly all actives have a fitted effect of over 45% in size
Procedure, shortened: as §6

[23] = qHTS assay to identify small molecule antagonists of the estrogen receptor alpha (ER-alpha) signaling pathway using the BG1 cell line in the presence of 0.1 nM 17-beta-estradiol - cell viability counter screen (AID 1259241); conditions: VM7Luc4E2 (BG1) viability, CellTiter-Fluor protease, 22 h; 0.1 nM estradiol agonist added; note: nearly all actives have a fitted effect of over 40% in size
Procedure, shortened: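 Viability in VM7Luc4E2 cells after 22 hr compound exposure under 0.1 nM 17beta-estradiol stimulation, by CellTiter-Fluor.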

[24] = qHTS assay to identify small molecule antagonists of the androgen receptor (AR) signaling pathway using the MDA cell line in the presence of 0.5 nM R1881 - cell viability counter screen (AID 1259242); note: nearly all actives have a fitted effect of over 45% in size
Procedure, shortened: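 Live-cell protease activity was measured by CellTiter-Fluor fluorescence after 30 min. Before that, MDA-kb2 MMTV-luciferase cells had 16 hr at 37C without CO2, exposed to test compounds and 0.5 nM R1881 final.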

[25] = qHTS assay to identify small molecule antagonists of the sonic hedgehog signaling (Shh) pathway - cell viability counter screen (AID 1259367); conditions: NIH/3T3 Gli1-Luc viability, CellTiter-Fluor, 24 h; note: nearly all actives have a fitted effect of over 55% in size
Procedure, shortened: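 Tox21 library chemicals were tested on a Gli1-Luc NIH/3T3 clone (2,000 cells/well) stimulated by conditioned medium; viability was quantified as fluorescence from CellTiter-Fluor reagent added at 23 hr.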

[26] = qHTS assay to identify small molecule agonists of the androgen receptor (AR) signaling pathway in the presence of an antagonist - cell viability counter screen (AID 1259379); conditions: MDA-kb2 viability, CellTiter-Fluor, 16 h; note: nearly all actives have a fitted effect of over 25% in size
Procedure, shortened: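 Cytotoxicity counter-screen run in the same wells as the nilutamide-challenged (3.0 µM final) AR agonist assay in MDA-kb2 cells. Compounds tested at 15 concentrations for 16 h, 37 °C without CO2; CellTiter-Fluor fluorescence read.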

[27] = qHTS assay to identify small molecule agonists of the estrogen receptor beta (ER-beta) signaling pathway - cell viability counter screen (AID 1259380); conditions: ER-beta-bla HEK293T viability, CellTiter-Glo luminescence, 16 h; note: nearly all actives have a fitted effect of over 30% in size
Procedure, shortened: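 Cell viability counter screen: CellTiter-Glo luminescence (30 min, room temperature) measured in the same wells as the beta-lactamase readout, after 16 hr compound exposure at 37C of ER-beta-bla HEK293T cells in 2% charcoal-stripped FBS medium.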

[28] = qHTS assay to identify small molecule antagonists of the estrogen receptor beta (ER-beta) signaling pathway - cell viability counter screen (AID 1259382); conditions: ER-beta-UAS-bla HEK293T viability, CellTiter-Glo luminescence, 16 h; note: nearly all actives have a fitted effect of over 55% in size
Procedure, shortened: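 Cytotoxicity was measured in the same wells by CellTiter-Glo luminescence after 30 min at room temperature. Cells were ER-beta-bla HEK293T in charcoal-stripped serum, given compound together with 1 nM E2 and incubated 16 h at 37C.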

[29] = qHTS assay to identify small molecule agonists of the estrogen receptor alpha (ER-alpha) signaling pathway in the presence of an antagonist - cell viability counter screen (AID 1259386); note: nearly all actives have a fitted effect of over 30% in size
Procedure, shortened: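 Compounds tested at 15 concentrations for 22 h at 37C alongside 10.0nM (final) ICI-182,780 antagonist, in VM7Luc4E2 cells grown in phenol red-free, charcoal-stripped medium. Viability read by CellTiter-Fluor fluorescence after 1 h reagent incubation.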

[30] = target: Progesterone receptor (Homo sapiens) (UniProt P06401); assay: qHTS assay to identify small molecule antagonists of the progesterone receptor (PR) signaling pathway (AID 1346795; active = well fitted inhibition curve with a large enough effect in the signal ratio in the repeat runs, not every such curve was filed as active; the % refers to the signal ratio); conditions: PR-UAS-bla HEK293T, beta-lactamase FRET ratio, 16 h
Procedure, shortened: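 After 6 hr plating at 37C in 2% stripped-serum medium, PR-UAS-bla HEK293T cells got compounds, then 1 nM R5020. Sixteen hours later, LiveBLAzer substrate was applied for 2 hr at room temperature and fluorescence was recorded.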

[31] = Human pregnane X receptor (PXR) small molecule agonists, qHTS cell viability counter screen (AID 1346977); conditions: PXR-Luc HepG2 viability, CellTiter-Fluor, 24 h; note: nearly all actives have a fitted effect of over 50% in size
Procedure, shortened: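 HepG2 cells stably carrying the PXR-Luc reporter are cultured with 5% charcoal-stripped FBS and treated with compounds for 24hr. CellTiter-Fluor is added at 23hr and fluorescence is read after 1hr.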

[32] = Caspase-3/7 induction in CHO-K1 cells by small molecules, qHTS cell viability counter screen (AID 1346979); note: nearly all actives have a fitted effect of over 35% in size
Procedure, shortened: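 Seeding: 1,500 CHO-K1 cells/well. Rest: 5hr, 37C. Treatment: compounds in DMSO, 16hr. Read: CellTiter-Fluor, 1hr, fluorescence.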

[33] = Caspase-3/7 induction in HepG2 cells by small molecules, qHTS cell viability counter screen (AID 1346981); conditions: CellTiter-Fluor fluorescence, 17 h; note: nearly all actives have a fitted effect of over 30% in size
Procedure, shortened: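 CellTiter-Fluor fluorescence measured viability in the same wells used for Caspase-Glo 3/7. HepG2 (wild type) at 2,000 cells/well were pre-incubated 5 hr, dosed, and given reagent at 16 hr, with 1 hr further at 37C.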

Measured: Potency
Potency is the fitted concentration of half-maximal effect.

N#CSc1ccc([N+](=O)[O-])cc1[N+](=O)[O-]
active: [1] 48.6 µM | [2] 27.3 µM | [3] 15.5 µM | [4] 17.4 µM | [5] 15.5 µM | [6] 19.5 µM | [7] 13.8 µM | [8] 17.4 µM | [9] 15.5 µM | [10] 38.9 µM | [11] 19.5 µM | [12] 13.8 µM | [13] 15.5 µM | [14] 13.8 µM | [15] 24.5 µM | [16] 13.8 µM | [17] 43.6 µM | [18] 15.5 µM | [19] 15.5 µM | [20] 17.4 µM | [21] 38.9 µM | [22] 21.9 µM | [23] 54.5 µM | [24] 61.1 µM | [25] 24.3 µM | [26] 61.1 µM | [27] 21.7 µM | [28] 19.3 µM | [29] 61.1 µM | [30] 4.86 µM | [31] 19.3 µM | [32] 13.7 µM | [33] 61.1 µM
